scFv variants of Ab-14 (heavy chain) against a SARS-CoV-2 spike peptide

The target is the same throughout: PDVDLGDISGINAS, from the HR2 region of SARS-CoV-2 spike.

Parent: Ab-14, a human scFv built as VH, the linker GGGGSGGGGSGGGGS, VL. Only the CDRs of the heavy chain vary.
VH: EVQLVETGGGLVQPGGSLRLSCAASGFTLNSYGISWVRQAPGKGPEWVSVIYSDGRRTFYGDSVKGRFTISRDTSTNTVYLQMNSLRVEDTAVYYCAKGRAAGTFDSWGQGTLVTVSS
VL: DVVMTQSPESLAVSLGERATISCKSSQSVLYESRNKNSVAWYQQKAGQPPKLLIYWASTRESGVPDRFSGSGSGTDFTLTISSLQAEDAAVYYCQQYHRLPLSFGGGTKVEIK

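Designed CDR sequences, proposed from the first random library and measured here. Group labels follow the data file (Ctrl: baseline library sampled from a position-specific scoring matrix, with some repeated check sequences; En: ensemble of fine-tuned language models; GP: Gaussian process model; GPLM: also part of the Gaussian process libraries; HC: hill climbing; Gen: genetic algorithm; Gibbs: Gibbs sampling; a sequence that several methods proposed may carry one label only). In AlphaSeq, yeast of one mating type display the scFv and yeast of the other type display the target. After mating in shaken culture at 30 °C for 16 h, diploids were selected and their barcode pairs sequenced. A regression on co-assayed BCL2-family reference pairs converts the normalised counts of each replicate to an apparent Kd. Each pool was mated in six replicate cultures.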

Sequences are complete VH domains.
The read-out is the apparent dissociation constant on a log10 scale (nM): the lower, the stronger.
Averages over replicates are reported, and they cover detected replicates only.
"nd" marks a missing value. The strain was present, yet no cells mated with the target were sequenced in any replicate, which points to weak or no binding.

| VH | group | log10 Kd (nM), mean | seen in |
|---|---|---|---|
| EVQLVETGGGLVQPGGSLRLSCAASGFDLNEYGISWVRQAPGKGPEWVSVIYADGRRTAYTDNVKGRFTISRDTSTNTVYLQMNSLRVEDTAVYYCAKGQNAGTFDSWGQGTLVTVSS | En_HC | -1.00 | 6 of 6 |
| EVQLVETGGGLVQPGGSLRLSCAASGFELNSYGVSWVRQAPGKGPEWVSVIYSDGRRTFYGDSVKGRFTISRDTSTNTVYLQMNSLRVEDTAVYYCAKGRAALTFDTWGQGTLVTVSS | Ctrl | 1.85 | 3 of 6 |
| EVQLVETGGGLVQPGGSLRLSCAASGFELNSYGISWVRQAPGKGPEWVSVIYSDGRRTFYQDSVKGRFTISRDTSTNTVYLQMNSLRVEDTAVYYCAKGEAAGTFDTWGQGTLVTVSS | GP_Gibbs | 0.93 | 6 of 6 |
| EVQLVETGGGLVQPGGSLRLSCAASGFSLNDYGISWVRQAPGKGPEWVSVIYSDGRRTFYADSVKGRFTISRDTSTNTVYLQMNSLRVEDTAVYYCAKGRMAGTFDSWGQGTLVTVSS | GP_Gen | -0.16 | 6 of 6 |
| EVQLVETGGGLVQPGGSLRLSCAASGFDLNEYGISWVRQAPGKGPEWVSVIYADGLRTAYADSVKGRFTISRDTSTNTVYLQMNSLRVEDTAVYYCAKGEVAGTFDLWGQGTLVTVSS | En_Gen | -0.27 | 6 of 6 |
| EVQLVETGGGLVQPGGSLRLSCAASGFHLNSYGISWVRQAPGKGPEWVSVIYSDGRRTFYIDSVKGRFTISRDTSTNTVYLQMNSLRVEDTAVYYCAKGRTAGTFDSWGQGTLVTVSS | GP_Gen | 1.94 | 4 of 6 |
| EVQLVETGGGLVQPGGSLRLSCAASGFDLNSYGISWVRQAPGKGPEWVSVIYSDGRRTFYGDSVKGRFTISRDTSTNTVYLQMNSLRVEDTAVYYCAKGKAAGTFDMWGQGTLVTVSS | GPLM_Gibbs | 0.08 | 3 of 6 |
| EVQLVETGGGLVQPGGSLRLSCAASGFDLNEYGISWVRQAPGKGPEWVSVIYADGVRTFYVDSVKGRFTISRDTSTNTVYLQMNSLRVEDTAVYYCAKGEVAGTFDVWGQGTLVTVSS | En_HC | -0.52 | 6 of 6 |
| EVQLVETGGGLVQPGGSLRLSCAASGFGLDDYGISWVRQAPGKGPEWVSVIYADGQRKMYQDNVKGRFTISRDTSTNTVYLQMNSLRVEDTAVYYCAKGNVGSLFSVWGQGTLVTVSS | En_Gibbs | nd | 0 of 6 |
| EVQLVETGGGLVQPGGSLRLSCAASGFSLNDYGISWVRQAPGKGPEWVSVIYSDGRRTFYADSVKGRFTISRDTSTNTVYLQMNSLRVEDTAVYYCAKGKAAGTFDSWGQGTLVTVSS | GPLM_Gen | 0.31 | 6 of 6 |
| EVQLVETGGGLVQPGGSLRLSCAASGFTLNSYGISWVRQAPGKGPEWVSVIYSDGRRTQYGDSVEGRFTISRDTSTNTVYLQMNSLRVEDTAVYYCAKGRAAGTFDSWGQGTLVTVSS | Ctrl | 2.44 | 1 of 6 |
| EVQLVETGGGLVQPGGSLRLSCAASKFNLNEYGISWVRQAPGKGPEWVSVIYSDGRRTFYTDSVKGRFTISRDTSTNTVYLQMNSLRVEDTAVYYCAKGRCAGTFDSWGQGTLVTVSS | GP_HC | 0.39 | 1 of 6 |
| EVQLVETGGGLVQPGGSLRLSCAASGFTLESYGISWVRQAPGKGPEWVSVIYSDGRRTFYADRVKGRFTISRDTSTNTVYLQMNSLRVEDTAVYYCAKGRAAGTFDSWGQGTLVTVSS | GPLM_Gen | 1.41 | 2 of 6 |
| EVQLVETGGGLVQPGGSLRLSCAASGFDLNSYGISWVRQAPGKGPEWVSVIYSDGRRTFYGDSVKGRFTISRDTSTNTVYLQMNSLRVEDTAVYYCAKGEAAGIFNSWGQGTLVTVSS | GP_HC | nd | 0 of 6 |
| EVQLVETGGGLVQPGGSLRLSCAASGFNLNSYGISWVRQAPGKGPEWVSVIYSDGRRTFYGDAVKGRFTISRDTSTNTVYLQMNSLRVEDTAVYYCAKGRTAGTFDSWGQGTLVTVSS | GP_Gen | nd | 0 of 6 |
| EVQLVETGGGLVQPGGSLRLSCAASGFTLNSYGISWVRQAPGKGPEWVSVIYSDGRRTFYADDVKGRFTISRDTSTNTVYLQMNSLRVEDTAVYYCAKGNAAGTFDSWGQGTLVTVSS | GPLM_Gibbs | 0.51 | 6 of 6 |
| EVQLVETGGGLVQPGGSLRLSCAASGFEIDEYGISWVRQAPGKGPEWVSVIYADGIRTSYNDNVKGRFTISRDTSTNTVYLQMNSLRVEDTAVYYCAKGQLGTAFDLWGQGTLVTVSS | En_Gibbs | nd | 0 of 6 |

The authors averaged sequences with at least three values out of six and counted those with two or fewer as poor binders.
Of ten entries with the parent sequence, four were seen in most replicates (averages 0.34 to 2.37), three in one and three in none, so single entries are noisy.
A sequence measured in both rounds can read differently, since the two assays cover different ranges.
As a blank, each scFv also met three strains without target: over all heavy chain designs, 1% of these pairings were detected, typically at 2.08 and seldom below 0.84.

Values reported by Li et al. 2023, doi:10.1038/s41467-023-39022-2 (FLAb copy).